Assay results reported in patent US10196357B2, “Biaryl compositions and methods for modulating a kinase cascade” (Athenex, Inc., priority 2007, dated 2019).

Sequences of proteins named here, by UniProt entry; tags and fusion partners are left off. Residues count along the entry.
UniProt P06241, whole entry: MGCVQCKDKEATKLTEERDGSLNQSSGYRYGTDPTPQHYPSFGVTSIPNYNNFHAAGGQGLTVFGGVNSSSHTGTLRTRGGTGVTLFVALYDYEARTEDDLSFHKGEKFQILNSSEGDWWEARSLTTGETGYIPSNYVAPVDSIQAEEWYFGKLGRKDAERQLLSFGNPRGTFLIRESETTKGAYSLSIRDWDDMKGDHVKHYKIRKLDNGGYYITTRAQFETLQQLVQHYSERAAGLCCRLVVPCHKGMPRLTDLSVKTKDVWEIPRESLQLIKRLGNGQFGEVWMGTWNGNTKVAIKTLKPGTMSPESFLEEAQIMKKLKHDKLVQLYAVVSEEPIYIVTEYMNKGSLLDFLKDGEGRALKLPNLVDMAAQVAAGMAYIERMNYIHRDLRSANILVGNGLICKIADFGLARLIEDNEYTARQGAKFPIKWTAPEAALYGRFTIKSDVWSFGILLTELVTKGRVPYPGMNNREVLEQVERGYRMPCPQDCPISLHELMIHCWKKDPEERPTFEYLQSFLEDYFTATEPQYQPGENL
UniProt P00519, whole entry: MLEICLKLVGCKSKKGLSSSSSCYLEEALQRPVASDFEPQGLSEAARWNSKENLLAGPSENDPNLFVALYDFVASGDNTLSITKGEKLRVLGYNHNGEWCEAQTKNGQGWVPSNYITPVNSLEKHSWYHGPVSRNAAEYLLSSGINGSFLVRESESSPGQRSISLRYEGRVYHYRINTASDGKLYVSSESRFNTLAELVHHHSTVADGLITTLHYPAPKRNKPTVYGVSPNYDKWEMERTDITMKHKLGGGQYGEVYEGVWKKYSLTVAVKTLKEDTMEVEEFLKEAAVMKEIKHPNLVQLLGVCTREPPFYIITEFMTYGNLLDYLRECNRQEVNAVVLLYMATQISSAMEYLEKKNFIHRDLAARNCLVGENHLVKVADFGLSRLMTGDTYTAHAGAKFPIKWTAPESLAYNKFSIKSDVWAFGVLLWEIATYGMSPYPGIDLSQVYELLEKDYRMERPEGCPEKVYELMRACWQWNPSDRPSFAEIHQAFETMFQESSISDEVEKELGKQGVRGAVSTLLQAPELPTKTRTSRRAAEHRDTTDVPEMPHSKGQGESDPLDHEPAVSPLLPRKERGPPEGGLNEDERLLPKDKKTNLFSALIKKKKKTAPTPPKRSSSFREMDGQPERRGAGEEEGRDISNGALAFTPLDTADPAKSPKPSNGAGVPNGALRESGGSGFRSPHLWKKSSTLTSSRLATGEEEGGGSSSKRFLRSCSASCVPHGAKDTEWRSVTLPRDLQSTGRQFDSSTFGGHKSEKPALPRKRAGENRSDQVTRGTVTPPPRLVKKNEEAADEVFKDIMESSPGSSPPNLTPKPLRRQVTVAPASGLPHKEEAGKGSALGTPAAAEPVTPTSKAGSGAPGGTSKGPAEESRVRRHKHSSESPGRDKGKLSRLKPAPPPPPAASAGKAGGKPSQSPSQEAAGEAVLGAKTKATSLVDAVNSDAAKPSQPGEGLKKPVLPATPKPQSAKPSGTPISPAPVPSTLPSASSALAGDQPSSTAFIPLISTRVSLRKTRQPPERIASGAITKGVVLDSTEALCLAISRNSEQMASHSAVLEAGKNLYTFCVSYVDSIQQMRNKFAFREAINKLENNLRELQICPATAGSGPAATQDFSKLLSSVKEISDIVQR
UniProt P07948, whole entry: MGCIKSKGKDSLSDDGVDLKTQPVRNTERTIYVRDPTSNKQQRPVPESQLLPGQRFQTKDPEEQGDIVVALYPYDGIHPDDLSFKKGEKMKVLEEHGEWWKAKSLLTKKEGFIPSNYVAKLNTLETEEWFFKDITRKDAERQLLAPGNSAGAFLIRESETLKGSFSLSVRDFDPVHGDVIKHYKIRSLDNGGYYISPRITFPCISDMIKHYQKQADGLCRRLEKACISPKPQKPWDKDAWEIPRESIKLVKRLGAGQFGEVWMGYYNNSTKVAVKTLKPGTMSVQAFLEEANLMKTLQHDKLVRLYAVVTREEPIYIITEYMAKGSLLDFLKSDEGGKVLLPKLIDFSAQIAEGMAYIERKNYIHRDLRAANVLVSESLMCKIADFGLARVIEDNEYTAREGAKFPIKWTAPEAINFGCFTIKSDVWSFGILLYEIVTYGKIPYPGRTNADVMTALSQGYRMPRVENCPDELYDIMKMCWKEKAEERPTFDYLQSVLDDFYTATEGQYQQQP
UniProt P06239, whole entry: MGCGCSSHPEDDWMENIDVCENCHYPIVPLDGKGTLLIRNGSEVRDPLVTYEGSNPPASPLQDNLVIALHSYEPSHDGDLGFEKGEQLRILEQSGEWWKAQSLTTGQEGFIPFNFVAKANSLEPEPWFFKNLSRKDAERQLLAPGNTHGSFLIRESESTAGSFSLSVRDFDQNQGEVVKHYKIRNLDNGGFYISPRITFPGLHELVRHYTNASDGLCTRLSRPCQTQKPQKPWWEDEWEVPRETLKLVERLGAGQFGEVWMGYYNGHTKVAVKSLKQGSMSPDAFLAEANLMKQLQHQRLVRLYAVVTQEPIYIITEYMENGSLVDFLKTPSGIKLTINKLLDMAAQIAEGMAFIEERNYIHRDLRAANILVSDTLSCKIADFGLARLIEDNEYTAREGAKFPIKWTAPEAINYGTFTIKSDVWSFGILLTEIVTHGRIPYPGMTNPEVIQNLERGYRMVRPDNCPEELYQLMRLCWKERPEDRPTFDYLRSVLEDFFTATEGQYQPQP
UniProt Q14289, whole entry: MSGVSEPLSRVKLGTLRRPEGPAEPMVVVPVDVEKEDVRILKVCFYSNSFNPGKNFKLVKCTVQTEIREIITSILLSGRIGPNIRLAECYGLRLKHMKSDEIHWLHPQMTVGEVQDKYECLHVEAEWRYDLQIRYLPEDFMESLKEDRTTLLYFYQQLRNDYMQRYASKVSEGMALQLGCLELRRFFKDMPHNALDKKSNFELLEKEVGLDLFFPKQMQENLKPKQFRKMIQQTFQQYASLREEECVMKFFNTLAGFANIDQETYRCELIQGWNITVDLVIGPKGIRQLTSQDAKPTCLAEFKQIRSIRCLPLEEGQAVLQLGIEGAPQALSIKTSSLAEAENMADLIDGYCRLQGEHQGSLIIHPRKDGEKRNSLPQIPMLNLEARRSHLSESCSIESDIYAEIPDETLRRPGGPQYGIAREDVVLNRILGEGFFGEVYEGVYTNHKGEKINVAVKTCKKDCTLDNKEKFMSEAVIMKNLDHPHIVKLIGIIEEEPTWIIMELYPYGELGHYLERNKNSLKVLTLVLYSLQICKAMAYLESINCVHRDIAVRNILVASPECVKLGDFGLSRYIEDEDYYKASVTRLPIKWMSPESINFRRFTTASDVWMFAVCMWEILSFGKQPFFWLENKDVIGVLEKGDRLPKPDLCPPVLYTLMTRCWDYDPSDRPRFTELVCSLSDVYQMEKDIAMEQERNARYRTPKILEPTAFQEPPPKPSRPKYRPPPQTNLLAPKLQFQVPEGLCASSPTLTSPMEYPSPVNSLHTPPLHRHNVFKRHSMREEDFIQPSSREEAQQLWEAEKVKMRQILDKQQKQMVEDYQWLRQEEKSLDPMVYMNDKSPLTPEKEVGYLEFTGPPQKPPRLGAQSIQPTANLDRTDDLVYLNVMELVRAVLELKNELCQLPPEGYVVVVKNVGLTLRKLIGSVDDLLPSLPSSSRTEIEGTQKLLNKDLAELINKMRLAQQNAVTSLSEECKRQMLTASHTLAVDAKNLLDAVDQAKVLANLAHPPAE
UniProt P28482, whole entry: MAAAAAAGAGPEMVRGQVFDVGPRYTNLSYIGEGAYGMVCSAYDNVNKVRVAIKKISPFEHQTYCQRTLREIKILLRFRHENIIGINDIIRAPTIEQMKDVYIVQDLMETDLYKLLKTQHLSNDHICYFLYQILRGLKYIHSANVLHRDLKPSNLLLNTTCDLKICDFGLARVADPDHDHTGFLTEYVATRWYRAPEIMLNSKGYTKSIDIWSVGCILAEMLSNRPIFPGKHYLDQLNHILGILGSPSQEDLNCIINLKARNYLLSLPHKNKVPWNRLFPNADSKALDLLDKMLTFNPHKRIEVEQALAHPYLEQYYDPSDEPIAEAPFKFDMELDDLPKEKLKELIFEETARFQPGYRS
UniProt P00533, 25-1210 limits assumed: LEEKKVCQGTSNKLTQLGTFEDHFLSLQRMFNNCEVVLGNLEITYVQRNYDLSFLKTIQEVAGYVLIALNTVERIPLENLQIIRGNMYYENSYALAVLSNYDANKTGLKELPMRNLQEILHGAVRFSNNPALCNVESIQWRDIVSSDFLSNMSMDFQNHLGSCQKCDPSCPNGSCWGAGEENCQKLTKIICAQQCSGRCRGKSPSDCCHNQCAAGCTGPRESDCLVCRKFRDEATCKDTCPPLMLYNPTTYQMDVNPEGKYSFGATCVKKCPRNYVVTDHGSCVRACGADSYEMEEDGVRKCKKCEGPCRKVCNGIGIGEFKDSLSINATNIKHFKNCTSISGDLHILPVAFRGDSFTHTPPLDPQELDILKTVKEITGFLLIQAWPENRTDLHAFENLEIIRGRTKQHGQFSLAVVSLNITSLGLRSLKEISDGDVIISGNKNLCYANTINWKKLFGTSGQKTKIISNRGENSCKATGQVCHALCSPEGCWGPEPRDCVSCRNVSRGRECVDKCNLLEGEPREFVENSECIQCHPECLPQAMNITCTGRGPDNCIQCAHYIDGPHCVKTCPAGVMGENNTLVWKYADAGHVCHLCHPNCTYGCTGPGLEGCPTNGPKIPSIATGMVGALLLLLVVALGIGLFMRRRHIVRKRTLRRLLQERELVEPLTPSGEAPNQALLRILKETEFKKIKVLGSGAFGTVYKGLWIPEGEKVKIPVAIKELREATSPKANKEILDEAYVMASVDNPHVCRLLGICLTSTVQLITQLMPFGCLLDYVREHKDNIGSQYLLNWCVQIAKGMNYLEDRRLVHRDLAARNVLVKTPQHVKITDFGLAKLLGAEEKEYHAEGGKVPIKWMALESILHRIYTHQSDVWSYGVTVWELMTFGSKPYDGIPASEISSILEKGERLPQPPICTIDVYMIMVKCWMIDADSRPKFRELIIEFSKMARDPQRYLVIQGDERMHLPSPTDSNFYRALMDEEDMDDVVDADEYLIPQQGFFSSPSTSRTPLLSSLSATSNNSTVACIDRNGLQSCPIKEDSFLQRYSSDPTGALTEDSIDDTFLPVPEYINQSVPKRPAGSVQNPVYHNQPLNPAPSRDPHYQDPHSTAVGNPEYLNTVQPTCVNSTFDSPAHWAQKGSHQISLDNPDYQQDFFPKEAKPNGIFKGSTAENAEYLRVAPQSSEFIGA
UniProt P08069, 31-1367 limits assumed: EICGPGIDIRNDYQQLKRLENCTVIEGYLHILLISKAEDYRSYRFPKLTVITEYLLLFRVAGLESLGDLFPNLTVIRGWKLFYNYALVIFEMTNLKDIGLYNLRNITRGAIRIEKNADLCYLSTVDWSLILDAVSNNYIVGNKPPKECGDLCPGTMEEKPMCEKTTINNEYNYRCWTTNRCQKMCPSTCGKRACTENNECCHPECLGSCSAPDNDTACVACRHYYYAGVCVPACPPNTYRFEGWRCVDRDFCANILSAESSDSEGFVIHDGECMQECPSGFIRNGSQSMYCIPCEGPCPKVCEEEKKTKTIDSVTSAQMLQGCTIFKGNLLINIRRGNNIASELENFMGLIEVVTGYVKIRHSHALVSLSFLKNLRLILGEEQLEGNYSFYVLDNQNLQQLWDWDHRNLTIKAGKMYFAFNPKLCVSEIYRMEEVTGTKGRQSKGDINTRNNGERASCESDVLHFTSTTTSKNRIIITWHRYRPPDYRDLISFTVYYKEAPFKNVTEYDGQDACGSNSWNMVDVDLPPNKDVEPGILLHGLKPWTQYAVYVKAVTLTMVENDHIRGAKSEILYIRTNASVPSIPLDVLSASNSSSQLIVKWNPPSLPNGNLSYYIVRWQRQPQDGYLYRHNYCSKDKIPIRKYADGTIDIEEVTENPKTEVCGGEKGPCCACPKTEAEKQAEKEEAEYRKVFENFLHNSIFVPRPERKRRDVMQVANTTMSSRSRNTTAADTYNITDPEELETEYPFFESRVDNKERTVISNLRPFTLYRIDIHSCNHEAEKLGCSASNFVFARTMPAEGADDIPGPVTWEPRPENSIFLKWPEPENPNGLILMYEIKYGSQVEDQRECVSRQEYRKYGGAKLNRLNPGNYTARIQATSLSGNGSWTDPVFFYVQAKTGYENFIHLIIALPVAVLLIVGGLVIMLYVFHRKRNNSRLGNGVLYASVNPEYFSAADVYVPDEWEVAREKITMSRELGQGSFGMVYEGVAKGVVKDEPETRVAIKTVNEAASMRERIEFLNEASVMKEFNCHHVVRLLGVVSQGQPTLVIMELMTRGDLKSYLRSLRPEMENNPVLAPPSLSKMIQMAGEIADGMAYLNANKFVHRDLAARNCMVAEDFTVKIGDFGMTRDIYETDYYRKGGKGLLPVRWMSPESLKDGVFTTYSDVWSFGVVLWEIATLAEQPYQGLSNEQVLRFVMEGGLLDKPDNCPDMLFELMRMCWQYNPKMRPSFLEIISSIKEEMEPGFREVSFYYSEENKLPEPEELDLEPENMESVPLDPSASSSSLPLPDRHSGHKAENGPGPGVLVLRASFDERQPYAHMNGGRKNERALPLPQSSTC

How the values were obtained:
[1] = tested on: osteoclast precursors derived from spleen cells; test: osteoclast formation from spleen cells; assay type: cell-based; details: 5 days, RANKL and M-CSF, vs untreated control
FGFR2(h) = FGFR2(h) (Homo sapiens, UniProt P21802); test: isolated kinase activity, FGFR2; assay type: biochemical; details: compound @ 10 μM
[2] = tested on: total phosphotyrosine levels; test: total phosphotyrosine levels; assay type: cell-based; details: HT29 and c-Src527F/NIH-3T3 cells
Paxillin Y-31 = test: intracellular phosphorylation, Paxillin Y-31; assay type: cell-based; details: c-Src527F/NIH-3T3 cells
PI3 kinase = test: isolated kinase activity, PI3 kinase; assay type: biochemical; details: compound @ 10 μM
ZAP-70(h) = ZAP-70(h) (Homo sapiens, UniProt P43403); test: isolated kinase activity, ZAP-70; assay type: biochemical; details: compound @ 10 μM
Fyn(h) = Fyn(h) (Homo sapiens, UniProt P06241); test: isolated kinase activity, Fyn; assay type: biochemical; details: compound @ 10 μM
Abl(h) = Abl(h) (Homo sapiens, UniProt P00519); test: isolated kinase activity, Abl; assay type: biochemical; details: compound @ 10 μM
Lyn(h) = Lyn(h) (Homo sapiens, UniProt P07948); test: isolated kinase activity, Lyn; assay type: biochemical; details: compound @ 10 μM
Lck(h) = Lck(h) (Homo sapiens, UniProt P06239); test: isolated kinase activity, Lck; assay type: biochemical; details: compound @ 10 μM
[3] = tested on: osteoclasts on bone slices; test: osteoclast formation on bone slices; assay type: cell-based; details: vs untreated control
Pyk2(h) = Pyk2(h) (Homo sapiens, UniProt Q14289); test: isolated kinase activity, Pyk2; assay type: biochemical; details: compound @ 10 μM
[4] = tested on: resorption pits on bone slices; test: resorption pit formation on bone slices; assay type: cell-based; details: vs untreated control
[5] = noise-induced hearing loss; assay type: in vivo, Chinchillas; details: chinchilla ears treated on round window, 4 kHz band noise 105 dB SPL 4 h, days 1, 7, 21; relative to control ears
osteoclasts = test: osteoclast survival; assay type: cell-based; details: 48 hours, RANKL and M-CSF, vs untreated control
Shc Y239/240 = test: intracellular phosphorylation, Shc Y239/240; assay type: cell-based; details: whole cells
Yes(h) = Yes(h) (Homo sapiens, UniProt P07947); test: isolated kinase activity, Yes; assay type: biochemical; details: compound @ 10 μM
c-Src 3T3 cells = test: BrdU cell growth inhibition, c-Src 3T3; assay type: cell-based, mouse
MAPK2(h) = MAPK2(h) (Homo sapiens, UniProt P28482); test: isolated kinase activity, MAPK2; assay type: biochemical; details: compound @ 10 μM
[6] = tested on: EGFR tyrosine kinase autophosphorylation; test: EGFR tyrosine kinase autophosphorylation in cells; assay type: cell-based; details: tumor cells, FIG. 9; EGF Y845
EGFR(h) = EGFR(h) (Homo sapiens, UniProt P00533); test: isolated kinase activity, EGFR; assay type: biochemical; details: compound @ 10 μM
[7] = tested on: PDGF receptor tyrosine kinase Y572/574; test: PDGF receptor autophosphorylation in cells; assay type: cell-based; details: c-Src527F/NIH-3T3 cells
IGF-1R(h) = IGF-1R(h) (Homo sapiens, UniProt P08069); test: isolated kinase activity, IGF-1R; assay type: biochemical; details: compound @ 10 μM
HT29 cell line = test: BrdU cell growth inhibition, HT29; assay type: cell-based, human; details: 5 uM
PDGFRβ(h) = PDGFRβ(h) (Homo sapiens, UniProt P09619); test: isolated kinase activity, PDGFRβ; assay type: biochemical; details: compound @ 10 μM
FAK Tyr 925 = test: intracellular phosphorylation, FAK Tyr 925; assay type: cell-based; details: whole cells
FAK Y397 = test: FAK autophosphorylation in cells; assay type: cell-based; details: c-Src527F/NIH3T3 cells

## COc1cc2c(Nc3c(Cl)ccc4c3OCO4)ncnc2cc1OCCCN1CCCCC1
[1]
  formation of osteoclasts (staining): inhibited
  number of TRAP-positive osteoclasts (formation): reduced
FGFR2(h)
  percent activity of isolated kinase relative to control: 94%
[2]
  total phosphotyrosine levels: reduction in the total phosphotyrosine levels
Paxillin Y-31
  phosphorylation of Paxillin Y-31 (Src transphosphorylation): inhibited
PI3 kinase
  percent activity of isolated kinase relative to control: 99%
ZAP-70(h)
  percent activity of isolated kinase relative to control: 97%
Fyn(h)
  percent activity of isolated kinase relative to control: 2%
Abl(h)
  percent activity of isolated kinase relative to control: 1%
Lyn(h)
  percent activity of isolated kinase relative to control: 0%
Lck(h)
  percent activity of isolated kinase relative to control: 1%
[3]; FIG. 20A
  number of osteoclasts on the bone slices: reduced
[3]; FIG. 21A
  number of TRAP-positive osteoclasts on the bone slices: reduced
Pyk2(h)
  percent activity of isolated kinase relative to control: 43%
[4]; FIG. 20B
  number of resorption pits on the bone slices: reduced
[4]; FIG. 21B
  number of resorption pits on the bone slices (Toluidine Blue): reduced
[5]
  average dB threshold shifts: lower
osteoclasts
  number of TRAP-positive osteoclasts (survival): reduced
  survival of osteoclasts (staining): inhibited
Shc Y239/240
  phosphorylation of Shc Y239/240 (Src transphosphorylation): inhibited
Yes(h)
  percent activity of isolated kinase relative to control: 1%
c-Src 3T3 cells; 1.0 uM
  c-Src 3T3 Growth, % of Control Mean, n = 3: T (T = Cytotoxic Effect on Cells, negative growth)
c-Src 3T3 cells; 10 uM
  c-Src 3T3 Growth, % of Control Mean, n = 3: T (T = Cytotoxic Effect on Cells, negative growth)
MAPK2(h)
  percent activity of isolated kinase relative to control: 105%
[6]
  EGFR tyrosine kinase autophosphorylation: potently inhibits
EGFR(h)
  percent activity of isolated kinase relative to control: 3%
[7]
  PDGF receptor Y572/574 autophosphorylation: dose response reduction
IGF-1R(h)
  percent activity of isolated kinase relative to control: 110%
HT29 cell line
  HT-29 Growth, % of Control Mean, n = 3: T (T = Cytotoxic Effect on Cells, negative growth)
PDGFRβ(h)
  percent activity of isolated kinase relative to control: 98%
FAK Tyr 925
  phosphorylation of FAK Tyr 925 (Src transphosphorylation): inhibited
FAK Y397
  FAK Y397 autophosphorylation: some inhibition
